The source of these data is paper PMC9404653, “EphA4 targeting agents protect motor neurons from cell death induced by amyotrophic lateral sclerosis -astrocytes” (iScience, 2022).

Sequences of proteins named here, by UniProt entry; tags and fusion partners are left off. Residues count along the entry.
UniProt P54764, 29-209 limits assumed: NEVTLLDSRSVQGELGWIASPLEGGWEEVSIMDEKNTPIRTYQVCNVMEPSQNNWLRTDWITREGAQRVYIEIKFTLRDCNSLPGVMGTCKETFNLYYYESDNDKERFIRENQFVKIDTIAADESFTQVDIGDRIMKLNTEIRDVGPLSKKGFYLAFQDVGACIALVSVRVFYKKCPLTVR

The nature of data set [1]: Aqueous solubility by 1H NMR. The settings on record: determined by 1H NMR.
For the next data set, the target named is EphA4-LBD (Homo sapiens, UniProt P54764). The data set is described as follows: 2D [13C,1H] NMR chemical shift perturbation of 13Cε-Met labeled EphA4-LBD. The settings on record: weight average 1H/13C chemical shift perturbation, 20 μM EphA4-LBD, 298 K.
The subject of data set [2] is motor neurons co-cultured with sALS astrocytes. The data set is described as follows: Postmortem sALS astrocyte:motor neuron co-culture, motor neuron survival. The settings on record: 123C4 100 μM added at motor neuron seeding, 5 days co-culture.
For a further data set, the system named is SOD1(G93A) mouse model. Particulars: ref Wu et al., 2017; cited from earlier work.
The test system of a further data set is EphA4. Particulars: primary cortical neurons; ref Wu et al., 2017; cited from earlier work.

Each structure is given as a SMILES string.

As for `COc1ccc2[nH]cc(CCNC(=O)[C@H](Cc3ccncc3)NC(=O)[C@H](Cc3ccc(Cl)cc3)NC(=O)[C@H](Cc3c[nH]c4ccc(O)cc34)NC(=O)CCCN)c2c1`, in data set [1], the Aqueous solubility entry was “∼100 μM”. Further, at EphA4-LBD, the “Δδ Met 60” value was “+ (+ < 0.05 ppm)” and the “Δδ Met 164” value is reported as “+ (0.1 ppm < + < 0.2 ppm)”. For the same molecule, in data set [2], the Motor neuron survival entry was “prevented sALS astrocyte-mediated motor neuron toxicity”. In addition, in the data set on SOD1(G93A) mouse model, the Disease onset entry is “not disease onset” and the Survival entry was “improved survival”. For the same molecule, the “EphA4 phosphorylation (agonism)” value in the data set with EphA4 is listed as “acts as an agonist”.
